Numbers after ± are expanded uncertainties.
Legend:
[1] = Crystal; DTA
[2] = Molar enthalpy of transition or fusion; conditions: Crystal; DSC

**Q.** With `O=C(O)CCCCCCCCCCCC(=O)O` [tridecanedioic acid] as the compound, how does the Normal melting temperature [1] read?
**A.** Its Normal melting temperature is 113.06 ± 0.45 °C.

**Q.** And the “Molar enthalpy of transition or fusion” value [2]?
**A.** The value was 12.3 ± 0.311 kcal/mol.

Reference: the NIST ThermoML archive (doi:10.1016/j.jct.2015.05.026)
